Target: Dipeptidyl peptidase 4 (Rattus norvegicus, UniProt P14740)
Assay: Inhibition of DPP4 in rat plasma by fluorescence assay
Assay type: cell-free
Summary of the method: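 Rat plasma (50 µL) with Gly-Pro-AMC (25 µL of 120 µM), water and test compound at various concentrations in 100 µL total, 37 °C for 15 min. Fluorescence read at ex 355/em 460 nm. Percent inhibition relative to solvent alone; IC50 by logistic regression.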

By UniProt entry, the sequences of proteins in these tests, tags left out. Where a name states a change or a piece, a line headed by the entry shows the natural chain unless it says otherwise.
UniProt P14740: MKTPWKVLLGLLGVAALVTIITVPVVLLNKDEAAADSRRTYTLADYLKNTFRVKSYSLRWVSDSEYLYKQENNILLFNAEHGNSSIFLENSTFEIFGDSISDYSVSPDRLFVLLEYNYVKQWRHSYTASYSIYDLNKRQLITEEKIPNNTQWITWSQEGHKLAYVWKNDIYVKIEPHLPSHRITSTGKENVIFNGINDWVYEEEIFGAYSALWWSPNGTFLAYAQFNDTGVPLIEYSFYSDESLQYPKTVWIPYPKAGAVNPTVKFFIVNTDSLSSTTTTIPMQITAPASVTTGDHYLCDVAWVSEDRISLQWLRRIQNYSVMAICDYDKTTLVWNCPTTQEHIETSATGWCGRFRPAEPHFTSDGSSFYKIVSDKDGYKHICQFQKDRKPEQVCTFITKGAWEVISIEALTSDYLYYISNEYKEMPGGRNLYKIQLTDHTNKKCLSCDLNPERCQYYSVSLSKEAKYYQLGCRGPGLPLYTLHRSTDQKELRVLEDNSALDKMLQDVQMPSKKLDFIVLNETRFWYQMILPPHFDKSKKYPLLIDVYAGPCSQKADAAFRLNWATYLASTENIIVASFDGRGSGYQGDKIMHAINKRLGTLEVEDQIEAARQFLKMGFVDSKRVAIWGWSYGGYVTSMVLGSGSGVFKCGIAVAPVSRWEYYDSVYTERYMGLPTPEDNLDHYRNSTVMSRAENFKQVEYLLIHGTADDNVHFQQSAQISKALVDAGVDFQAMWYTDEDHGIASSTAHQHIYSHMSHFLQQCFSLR

Cc1csc(N2CCN(C(=O)[C@@H]3CN[C@H](C(=O)N4CCCC4)C3)CC2)n1
IC50: 61 nM

Source: ChEMBL document CHEMBL1143182, “Design and synthesis of DPP-IV inhibitors lacking the electrophilic nitrile group” (Bioorg Med Chem, 2008)
